Results from patent publication US20240270821A1, “GIP/GLP1/GCG TRI-RECEPTOR AGONISTS AND USES THEREOF” (priority 2023, published 2024).
Where two headings read alike, the source gives them in different places.

Sequences of proteins named here, by UniProt entry; tags and fusion partners are left off. Residues count along the entry.
UniProt P43220, 24-463: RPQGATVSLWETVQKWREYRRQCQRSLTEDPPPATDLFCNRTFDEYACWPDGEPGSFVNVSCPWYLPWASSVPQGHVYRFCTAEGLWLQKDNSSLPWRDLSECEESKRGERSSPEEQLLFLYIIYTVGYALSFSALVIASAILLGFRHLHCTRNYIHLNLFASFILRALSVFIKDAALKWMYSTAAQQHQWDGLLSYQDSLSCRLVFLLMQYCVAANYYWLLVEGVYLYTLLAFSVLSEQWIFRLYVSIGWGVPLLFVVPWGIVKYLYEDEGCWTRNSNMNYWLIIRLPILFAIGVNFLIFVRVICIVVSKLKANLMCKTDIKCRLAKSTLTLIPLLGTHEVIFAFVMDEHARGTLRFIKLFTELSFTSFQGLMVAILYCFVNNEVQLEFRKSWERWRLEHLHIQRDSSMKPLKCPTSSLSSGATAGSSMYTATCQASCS
UniProt P47871, 26-477: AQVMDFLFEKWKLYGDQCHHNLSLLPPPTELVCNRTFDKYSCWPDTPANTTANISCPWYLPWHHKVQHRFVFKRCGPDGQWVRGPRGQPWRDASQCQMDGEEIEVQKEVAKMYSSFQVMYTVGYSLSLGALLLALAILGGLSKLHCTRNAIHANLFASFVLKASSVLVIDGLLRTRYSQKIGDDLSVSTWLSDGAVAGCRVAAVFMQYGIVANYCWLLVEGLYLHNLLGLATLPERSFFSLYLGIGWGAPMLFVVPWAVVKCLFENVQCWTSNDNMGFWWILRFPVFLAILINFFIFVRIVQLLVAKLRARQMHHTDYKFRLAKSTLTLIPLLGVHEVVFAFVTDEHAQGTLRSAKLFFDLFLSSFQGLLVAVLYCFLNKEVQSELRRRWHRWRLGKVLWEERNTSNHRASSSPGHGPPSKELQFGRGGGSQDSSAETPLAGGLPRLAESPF

Columns and labels:
Format in all cases: cell-based
hGLP-1R [1] = target: T1, hGLP-1R (Homo sapiens, UniProt P43220); experiment: Functional cAMP activation in the presence of 0.1% casein (no HSA);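 further: intracellular cAMP rise after 30 min at 37 °C read by HTRF, normalized between buffer only (0%) and maximal control ligand (100%), four-parameter variable-slope fit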
human GcgR = human GcgR (Homo sapiens, UniProt P47871); experiment: Functional cAMP activity in the presence of 1% HSA
human GLP1-R = human GLP1-R (Homo sapiens, UniProt P43220); experiment: GLP1-R internalization assay in HEK293 cells; conditions: for Internalization % TOP: normalized to maximum concentration of GLP-1 (100%)
hGIPR [2] = target: T2, hGIPR (Homo sapiens, UniProt P48546); experiment: Functional cAMP activation in the presence of 0.1% casein (no HSA);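 further: intracellular cAMP rise after 30 min at 37 °C read by HTRF against a standard curve, scaled between buffer alone (0%) and top control ligand concentration (100%), four-parameter fit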
T2 sequence (P48546 22-466): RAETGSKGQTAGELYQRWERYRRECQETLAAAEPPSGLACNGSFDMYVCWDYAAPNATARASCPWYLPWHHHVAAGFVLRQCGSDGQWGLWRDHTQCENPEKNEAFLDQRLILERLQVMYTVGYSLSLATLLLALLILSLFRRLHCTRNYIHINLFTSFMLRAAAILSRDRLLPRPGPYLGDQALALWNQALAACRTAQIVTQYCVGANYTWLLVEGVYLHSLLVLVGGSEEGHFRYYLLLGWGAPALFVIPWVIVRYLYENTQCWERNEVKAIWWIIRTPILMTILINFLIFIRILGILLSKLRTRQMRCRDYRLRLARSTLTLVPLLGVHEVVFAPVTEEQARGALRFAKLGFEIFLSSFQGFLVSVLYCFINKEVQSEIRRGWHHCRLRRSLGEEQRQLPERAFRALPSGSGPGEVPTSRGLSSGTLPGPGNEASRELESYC

hGIPR [3] = target: T2, hGIPR; experiment: Functional cAMP activity in the presence of 1% HSA
hGLP-1R [4] = target: T1, hGLP-1R; experiment: Functional cAMP activity in the presence of 1% HSA
hGcgR = hGcgR (Homo sapiens, UniProt P47871); experiment: Functional cAMP activation in the presence of 0.1% casein (no HSA);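 further: intracellular cAMP rise after 30 min at 37 °C, read by HTRF against a cAMP standard curve, scaled from buffer only (0%) to maximal control ligand response (100%)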

SMILES | EC50 (hGLP-1R [1]) [nM] | EC50 (human GcgR) [nM] | EC50 (human GLP1-R; HEK293 cells expressing SNAP-GLP-1R, read-out: GLP1R Internalization EC50) [nM] | Internalization % TOP (human GLP1-R) [%] | EC50 (hGIPR [2]) [nM] | EC50 (hGIPR [3]) [nM] | EC50 (hGLP-1R [4]) [nM] | EC50 (hGcgR) [nM] | EC50 (human GLP1-R) [nM]
CC[C@H](C)[C@H](NC(=O)[C@H](Cc1ccccc1)NC(=O)[C@H](C)NC(=O)C(C)(C)NC(=O)[C@H](CCC(N)=O)NC(=O)[C@H](C)NC(=O)[C@H](CCCCNC(=O)COCCOCCNC(=O)CC[C@H](NC(=O)CCCCCCCCCCCCCCCCCCC(=O)O)C(=O)O)NC(=O)[C@H](CCCCN)NC(=O)[C@H](CC(=O)O)NC(=O)[C@H](CC(C)C)NC(=O)[C@](C)(CC(C)C)NC(=O)[C@H](CCCCN)NC(=O)[C@H](CO)NC(=O)[C@H](Cc1ccccc1)NC(=O)[C@H](CC(=O)O)NC(=O)[C@H](CO)NC(=O)[C@@H](NC(=O)[C@H](Cc1ccccc1)NC(=O)[C@@H](NC(=O)CNC(=O)[C@H](CCC(N)=O)NC(=O)C(C)(C)NC(=O)[C@@H](N)Cc1ccc(O)cc1)[C@@H](C)O)[C@@H](C)O)C(=O)N[C@@H](CCC(=O)O)C(=O)N[C@@H](Cc1ccc(O)cc1)C(=O)N[C@@H](CC(C)C)C(=O)N[C@@H](CC(C)C)C(=O)N[C@@H](C)C(=O)NCC(=O)NCC(=O)N1CCC[C@H]1C(=O)N[C@@H](CO)C(=O)N[C@@H](CO)C(=O)NCC(=O)N[C@@H](C)C(=O)N1CCC[C@H]1C(=O)N1CCC[C@H]1C(=O)N1CCC[C@H]1C(=O)N[C@@H](CO)C(=O)N[C@@H](CO)C(=O)NCC(N)=O [Example 13] | 1.78 | 1670 | 53.3 | 74.7 | 0.196 | 29.2 | 282 | 7.19 | –
CC[C@H](C)[C@H](NC(=O)[C@H](Cc1ccccc1)NC(=O)[C@H](C)NC(=O)C(C)(C)NC(=O)[C@H](CCC(N)=O)NC(=O)[C@H](C)NC(=O)[C@H](CCCCNC(=O)COCCOCCNC(=O)CC[C@H](NC(=O)CCCCCCCCCCCCCCCCCCC(=O)O)C(=O)O)NC(=O)[C@H](CCCCN)NC(=O)[C@H](CC(=O)O)NC(=O)[C@H](CC(C)C)NC(=O)[C@](C)(CC(C)C)NC(=O)[C@H](CCCNC(=N)N)NC(=O)[C@H](CO)NC(=O)[C@H](Cc1ccccc1)NC(=O)[C@H](CC(=O)O)NC(=O)[C@H](CO)NC(=O)[C@@H](NC(=O)[C@H](Cc1ccccc1)NC(=O)[C@@H](NC(=O)CNC(=O)[C@H](CCC(N)=O)NC(=O)C(C)(C)NC(=O)[C@@H](N)Cc1ccc(O)cc1)[C@@H](C)O)[C@@H](C)O)C(=O)N[C@@H](CCC(=O)O)C(=O)N[C@@H](Cc1ccc(O)cc1)C(=O)N[C@@H](CC(C)C)C(=O)N[C@@H](CC(C)C)C(=O)N[C@@H](CCC(=O)O)C(=O)NCC(=O)NCC(=O)N1CCC[C@H]1C(=O)N[C@@H](CO)C(=O)N[C@@H](CO)C(=O)NCC(=O)N[C@@H](C)C(=O)N1CCC[C@H]1C(=O)N1CCC[C@H]1C(=O)N1CCC[C@H]1C(=O)NCC(=O)NCC(=O)N[C@@H](CO)C(N)=O [Example 41] | 2.2 | 2310 | – | 62.3 | 0.258 | 97.9 | 711 | 8.59 | 83.7
CC[C@H](C)[C@H](NC(=O)[C@H](Cc1ccccc1)NC(=O)[C@H](C)NC(=O)C(C)(C)NC(=O)[C@H](CCC(N)=O)NC(=O)[C@H](C)NC(=O)[C@H](CCCCNC(=O)COCCOCCNC(=O)CC[C@H](NC(=O)CCCCCCCCCCCCCCCCC(=O)O)C(=O)O)NC(=O)[C@H](CCCCN)NC(=O)[C@H](CC(=O)O)NC(=O)[C@H](CC(C)C)NC(=O)[C@](C)(CC(C)C)NC(=O)[C@H](CCCNC(=N)N)NC(=O)[C@H](CO)NC(=O)[C@H](Cc1ccccc1)NC(=O)[C@H](CC(=O)O)NC(=O)[C@H](CO)NC(=O)[C@@H](NC(=O)[C@H](Cc1ccccc1)NC(=O)[C@@H](NC(=O)CNC(=O)[C@H](CCC(N)=O)NC(=O)C(C)(C)NC(=O)[C@@H](N)Cc1ccc(O)cc1)[C@@H](C)O)[C@@H](C)O)C(=O)N[C@@H](CCC(=O)O)C(=O)N[C@@H](Cc1ccc(O)cc1)C(=O)N[C@@H](CC(C)C)C(=O)N[C@@H](CC(C)C)C(=O)N[C@@H](CCC(=O)O)C(=O)NCC(=O)NCC(=O)N1CCC[C@H]1C(=O)N[C@@H](CO)C(=O)N[C@@H](CO)C(=O)NCC(=O)N[C@@H](C)C(=O)N1CCC[C@H]1C(=O)N1CCC[C@H]1C(=O)N1CCC[C@H]1C(=O)N[C@@H](CO)C(=O)NCC(=O)N[C@@H](CCC(=O)O)C(N)=O [Example 108] | – | 1290 | – | 41.1 | 0.222 | 56.5 | 777 | 3.95 | 67.7
CC[C@H](C)[C@H](NC(=O)[C@H](Cc1ccccc1)NC(=O)[C@H](C)NC(=O)C(C)(C)NC(=O)[C@H](CCC(N)=O)NC(=O)[C@H](C)NC(=O)[C@H](CCCCNC(=O)COCCOCCNC(=O)COCCOCCNC(=O)CC[C@H](NC(=O)CCCCCCCCCCCCCCCCC(=O)O)C(=O)O)NC(=O)[C@H](CCCCN)NC(=O)[C@H](CC(=O)O)NC(=O)[C@H](CC(C)C)NC(=O)[C@](C)(CC(C)C)NC(=O)[C@H](CCCNC(=N)N)NC(=O)[C@H](CO)NC(=O)[C@H](Cc1ccccc1)NC(=O)[C@H](CC(=O)O)NC(=O)[C@H](CO)NC(=O)[C@@H](NC(=O)[C@H](Cc1ccccc1)NC(=O)[C@@H](NC(=O)CNC(=O)[C@H](CCC(N)=O)NC(=O)C(C)(C)NC(=O)[C@@H](N)Cc1ccc(O)cc1)[C@@H](C)O)[C@@H](C)O)C(=O)N[C@@H](CCC(=O)O)C(=O)N[C@@H](Cc1ccc(O)cc1)C(=O)N[C@@H](CC(C)C)C(=O)N[C@@H](CC(C)C)C(=O)N[C@@H](CCC(=O)O)C(=O)NCC(=O)NCC(=O)N1CCC[C@H]1C(=O)N[C@@H](CO)C(=O)N[C@@H](CO)C(=O)NCC(=O)N[C@@H](C)C(=O)N1CCC[C@H]1C(=O)N1CCC[C@H]1C(=O)N1CCC[C@H]1C(=O)N[C@@H](CO)C(=O)NCC(=O)N[C@@H](CCC(=O)O)C(N)=O [Example 109] | 5.95 | 2760 | – | 39 | 0.279 | 22.3 | 671 | 11.2 | 28.8
CC[C@H](C)[C@H](NC(=O)[C@H](Cc1ccccc1)NC(=O)[C@H](C)NC(=O)C(C)(C)NC(=O)[C@H](CCC(N)=O)NC(=O)[C@H](C)NC(=O)[C@H](CCCCNC(=O)COCCOCCNC(=O)COCCOCCNC(=O)CC[C@H](NC(=O)CCCCCCCCCCCCCCCCC(=O)O)C(=O)O)NC(=O)[C@H](CCCCN)NC(=O)[C@H](CC(=O)O)NC(=O)[C@H](CC(C)C)NC(=O)[C@](C)(CC(C)C)NC(=O)[C@H](CCCN)NC(=O)[C@H](CO)NC(=O)[C@H](Cc1ccccc1)NC(=O)[C@H](CC(=O)O)NC(=O)[C@H](CO)NC(=O)[C@@H](NC(=O)[C@H](Cc1ccccc1)NC(=O)[C@@H](NC(=O)CNC(=O)[C@H](CCC(N)=O)NC(=O)C(C)(C)NC(=O)[C@@H](N)Cc1ccc(O)cc1)[C@@H](C)O)[C@@H](C)O)C(=O)N[C@@H](CCC(=O)O)C(=O)N[C@@H](Cc1ccc(O)cc1)C(=O)N[C@@H](CC(C)C)C(=O)N[C@@H](CC(C)C)C(=O)N[C@@H](CCC(=O)O)C(=O)NC(C)(C)C(=O)NCC(=O)N[C@@H](Cc1ccncc1)C(=O)N[C@@H](CO)C(=O)N[C@@H](CO)C(=O)NCC(=O)N[C@@H](C)C(=O)N1CCC[C@H]1C(=O)N1CCC[C@H]1C(=O)N1CCC[C@H]1C(=O)N[C@@H](CO)C(=O)NCC(=O)N[C@H](C(N)=O)[C@@H](C)O [Example 184] | 5.02 | 1050 | – | – | 0.162 | 16.2 | 465 | 5.23 | –
CC[C@H](C)[C@H](NC(=O)[C@H](Cc1ccccc1)NC(=O)[C@H](C)NC(=O)C(C)(C)NC(=O)[C@H](CCC(N)=O)NC(=O)[C@H](C)NC(=O)[C@H](CCCCNC(=O)CC[C@H](NC(=O)CC[C@H](NC(=O)CCCCCCCCCCCCCCCCC(=O)O)C(=O)O)C(=O)O)NC(=O)[C@H](CCCCN)NC(=O)[C@H](CC(=O)O)NC(=O)[C@H](CC(C)C)NC(=O)[C@](C)(CC(C)C)NC(=O)[C@H](CCC(N)=O)NC(=O)[C@H](CO)NC(=O)[C@H](Cc1ccccc1)NC(=O)[C@H](CC(=O)O)NC(=O)[C@H](CO)NC(=O)[C@@H](NC(=O)[C@H](Cc1ccccc1)NC(=O)[C@@H](NC(=O)CNC(=O)[C@H](CCC(N)=O)NC(=O)C(C)(C)NC(=O)[C@@H](N)Cc1ccc(O)cc1)[C@@H](C)O)[C@@H](C)O)C(=O)N[C@@H](CCC(=O)O)C(=O)N[C@@H](Cc1ccc(O)cc1)C(=O)N[C@@H](CC(C)C)C(=O)N[C@@H](CC(C)C)C(=O)N[C@@H](CCC(=O)O)C(=O)NC(C)(C)C(=O)NCC(=O)N1CCC[C@H]1C(=O)N[C@@H](CO)C(=O)N[C@@H](CO)C(=O)NCC(=O)N[C@@H](C)C(=O)N1CCC[C@H]1C(=O)N1CCC[C@H]1C(=O)N1CCC[C@H]1C(=O)N[C@@H](CO)C(=O)NCC(=O)N[C@@H](CO)C(N)=O [Example 784] | 2.09 | 711 | – | – | 0.0587 | 11.8 | 284 | 5.21 | –
